Reference: patent US12137687B2, “Method for inducing acquired resistance in a plant” (HEINRICH HEINE UNIVERSITAET DUESSELDORF, priority 2017, dated 2024)

Tested on: Pseudomonas syringae pv maculicola ES4326 (Psm lux)
Assay type: in vivo
Details: fmo1 mutant; 10 μmol via soil 1 d before Psm lux

O=C(O)[C@@H]1CCCCN1 [Pip, (S)-piperidine-2-carboxylic acid]
disease resistance of fmo1 plants after pre-treatment: remained susceptible
